The source of these data is patent US20140163083A1, “NOVEL CRYSTALLINE SALTS OF ASENAPINE” (SANDOZ AG, priority 2011, published 2014).

The conditions of the series: water, 25° C., 48 hours suspension equilibration, filtered, HPLC.

For Asenapine succinate form X, the “aqueous solubility calculated as free base” value is 10.7 mg/mL.
